The text below walks through data of US20060287345A1, “Substituted 4-phenyl-4-[1h-imidazol-2-yl]-piperidine derivatives as selective non-peptide delta opiod agonists with antidepressant and anxiolytic activity” (priority 2003, published 2006).

By UniProt entry, the sequences of proteins in these tests, tags left out. Where a name states a change or a piece, a line headed by the entry shows the natural chain unless it says otherwise.
UniProt P41145: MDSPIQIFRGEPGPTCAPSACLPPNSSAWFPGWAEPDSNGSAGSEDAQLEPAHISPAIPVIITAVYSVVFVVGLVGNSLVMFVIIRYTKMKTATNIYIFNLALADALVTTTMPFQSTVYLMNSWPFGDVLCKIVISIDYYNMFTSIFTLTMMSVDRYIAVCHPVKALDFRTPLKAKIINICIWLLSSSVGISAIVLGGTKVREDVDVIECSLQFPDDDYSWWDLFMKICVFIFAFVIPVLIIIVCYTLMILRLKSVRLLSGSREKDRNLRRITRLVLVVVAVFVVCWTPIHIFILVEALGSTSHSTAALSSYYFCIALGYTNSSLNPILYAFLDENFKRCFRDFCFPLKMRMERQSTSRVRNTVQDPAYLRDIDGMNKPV

Experiment [1] concerns the target T1, cloned human δ opioid receptor (Homo sapiens, UniProt P41143).
T1 construct: expressed in transfected cells; host or cells: C6 glioma cells (permanently transfected)
Description: Radioligand binding, competitive inhibition of [3H]DPDPE.

In experiment [2] the target is T2, δ opioid receptor (Homo sapiens, UniProt P41143). The experiment can be described thus: cell-based.
For experiment [3], the target named is cloned human κ opioid receptor (Homo sapiens, UniProt P41145). Description: biochemical.
Experiment [4] has as its target T2, δ opioid receptor. The experiment can be described thus: [35S]GTPγS binding, delta agonism. In kind it is biochemical. Details: expressed in transfected cells; host or cells: C6 glioma cells (permanently transfected). For orientation: Binding of GTPγS marks nucleotide exchange on a G protein.
Experiment [5] has as its target T2, δ opioid receptor. Description: Signal transport binding, delta antagonism. On the set-up: expressed in transfected cells; host or cells: C6 glioma cells (permanently transfected). The format is biochemical.
Setting [6] is: Agonist receptor binding (pIC50) delta, Table 8, [3H]DPDPE 2 nM, C6 glioma cell membranes.
The mark [7] stands for this setting: pIC50 values for the delta opioid receptor agonist test, Table 7, delta opioid receptor.

Molecules are shown by their SMILES. A value given as a limit tells only on which side of the number the result lay.

Consider `CCOC(=O)N1CCC(c2ccccc2)(c2nccn2Cc2ccccc2)CC1` [Compound 1, ethyl 4-phenyl-4-[1-(phenylmethyl)-1H-imidazol-2-yl]-1-piperidinecarboxylate], for which the half-maximal inhibitory concentration (IC50) is 0.00794 µM in experiment [1] (setting [6]); 0.0251 µM at δ opioid receptor [2]; 0.501 µM in experiment [3]; 0.0794 µM on δ opioid receptor [4]; over 10 µM on δ opioid receptor [5].
As to `O=C(c1ccccc1)N1CCC(c2ccccc2)(c2nccn2Cc2ccccc2)CC1` [Compound 2], the IC50 was 0.00501 µM in experiment [1] (setting [6]), 0.0158 µM on δ opioid receptor [2], 0.158 µM on δ opioid receptor [4] and over 10 µM on δ opioid receptor [5].
Regarding `CCOC(=O)N1CCC(c2ccccc2)(c2nccn2Cc2ccc(C(=O)OC)cc2)CC1` [Compound 3], the IC50 in experiment [1] (setting [6]) is 0.00158 µM; at δ opioid receptor [2], 0.0158 µM; at δ opioid receptor [4], 0.0501 µM; at δ opioid receptor [5] it was over 10 µM.
Regarding `CN(C(=O)N1CCC(c2ccccc2)(c2nccn2Cc2ccccc2)CC1)c1ccccc1` [Compound 9], in experiment [1] (setting [7]), the IC50 was 0.02 µM.
Consider `CCOC(=O)N1CCC(c2ccccc2)(c2nccn2Cc2ccc(O)cc2)CC1` [Compound 12, ethyl 4-phenyl-4-[1-(4-hydroxyphenylmethyl)-1H-imidazol-2-yl]-1-piperidinecarboxylate], for which the IC50 in experiment [1] (setting [6]) was 0.01 µM; against δ opioid receptor [2], 0.0126 µM; on δ opioid receptor [4] it was 0.1 µM; on δ opioid receptor [5] it was over 10 µM.
For the compound `COC(=O)N1CCC(c2ccccc2)(c2nccn2Cc2ccccc2)CC1` [Compound 13], in experiment [1] (setting [7]), the IC50 is 0.0398 µM. This lies in the double-digit nanomolar range.
Consider `CCOC(=O)N1CCC(c2ccccc2)(c2nccn2Cc2ccc(OC)cc2)CC1` [Compound 15], for which the IC50 in experiment [1] (setting [7]) is 0.0251 µM.
Take `CCOC(=O)N1CCC(c2ccccc2)(c2nccn2Cc2cccc(F)c2)CC1` [Compound 17]: the IC50 in experiment [1] (setting [7]) is 0.0126 µM.
For `CCOC(=O)N1CCC(c2ccccc2)(c2nccn2Cc2cccc(OC)c2)CC1` [Compound 18], the IC50 in experiment [1] (setting [7]) is 0.0631 µM.
As to `CCOC(=O)N1CCC(c2ccccc2)(c2nccn2C(C)c2ccccc2)CC1` (stereo not shown) [Compound 20], the IC50 is 0.00251 µM in experiment [1] (setting [6]), 0.0316 µM at δ opioid receptor [2], 0.1 µM on δ opioid receptor [4] and over 10 µM at δ opioid receptor [5].
On the same counts, the results for `CCCOC(=O)N1CCC(c2ccccc2)(c2nccn2Cc2ccccc2)CC1` [Compound 24] are 0.00631 µM, 0.00631 µM, 0.126 µM and over 10 µM.
Take `CC(C)OC(=O)N1CCC(c2ccccc2)(c2nccn2Cc2ccccc2)CC1` [Compound 25]: the IC50 in experiment [1] (setting [6]) is 0.00398 µM; on δ opioid receptor [2], 0.01 µM; at δ opioid receptor [4], 0.126 µM; on δ opioid receptor [5], over 10 µM.
`CC(C)(C)OC(=O)N1CCC(c2ccccc2)(c2nccn2Cc2ccccc2)CC1` [Compound 26]: the IC50 in experiment [1] (setting [7]) was 0.02 µM.
`CCCCOC(=O)N1CCC(c2ccccc2)(c2nccn2Cc2ccccc2)CC1` [Compound 27]: the 50% inhibitory concentration (IC50) in experiment [1] (setting [7]) is 0.02 µM. In other words, the double-digit nanomolar range.
Turning to `COCC(=O)N1CCC(c2ccccc2)(c2nccn2Cc2ccccc2)CC1` [Compound 29], the IC50 in experiment [1] (setting [7]) is 0.0158 µM.
For `COCC(=O)N1CCC(c2ccccc2)(c2nccn2C(C)c2ccccc2)CC1` (stereo not shown) [Compound 31], the IC50 (in experiment [1] (setting [6]); at δ opioid receptor [2]) was 0.00794 µM each time.
In turn, `O=C(OCc1ccccc1)N1CCC(c2ccccc2)(c2nccn2Cc2ccccc2)CC1` [Compound 32] had an IC50 in experiment [1] (setting [7]) of 0.0251 µM.
In experiment [1] (setting [7]), `CC(=O)N1CCC(c2ccccc2)(c2nccn2Cc2ccccc2)CC1` [Compound 33] showed an IC50 of 0.0794 µM.
For the compound `CCC(=O)N1CCC(c2ccccc2)(c2nccn2Cc2ccccc2)CC1` [Compound 34], in experiment [1] (setting [7]), the IC50 is 0.0631 µM.
In experiment [1] (setting [7]), `CC(C)(C)C(=O)N1CCC(c2ccccc2)(c2nccn2Cc2ccccc2)CC1` [Compound 37] had a concentration for half-maximal inhibition (IC50) of 0.0794 µM.
In the case of `COC(=O)c1ccc(Cn2ccnc2C2(c3ccccc3)CCN(C(=O)c3ccccc3)CC2)cc1` [Compound 38], the IC50 was 0.002 µM in experiment [1] (setting [6]) and 0.00501 µM on δ opioid receptor [2].
On to `CC(c1ccccc1)n1ccnc1C1(c2ccccc2)CCN(C(=O)c2ccccc2)CC1` (stereo not shown) [Compound 41], for which, in experiment [1] (setting [6]), the IC50 was 0.00501 µM.
With `O=C(Cc1ccccc1)N1CCC(c2ccccc2)(c2nccn2Cc2ccccc2)CC1` [Compound 45], the IC50 in experiment [1] (setting [7]) is 0.0501 µM.
Same read-out and setting: with `CCNC(=O)N1CCC(c2ccccc2)(c2nccn2Cc2ccccc2)CC1` [Compound 47] the figure was 0.0794 µM; with `CC(c1ccccc1)n1ccnc1C1(c2ccccc2)CCN(C(=O)Nc2ccccc2)CC1` (stereo not shown) [Compound 55], 0.0501 µM; with `O=C(Nc1ccccc1)N1CCC(c2ccccc2)(c2nccn2Cc2ccccc2F)CC1` [Compound 56], 0.0794 µM.
In experiment [1] (setting [7]), `O=C(Nc1ccccc1F)N1CCC(c2ccccc2)(c2nccn2Cc2ccccc2)CC1` [Compound 64] showed an IC50 of 0.0631 µM.
`COc1ccccc1NC(=O)N1CCC(c2ccccc2)(c2nccn2Cc2ccccc2)CC1` [Compound 67]: the IC50 in experiment [1] (setting [7]) is 0.0158 µM.
Same read-out and setting: the result for `COc1cccc(NC(=O)N2CCC(c3ccccc3)(c3nccn3Cc3ccccc3)CC2)c1` [Compound 69] reads 0.0251 µM; that for `O=C(Nc1cccc(F)c1)N1CCC(c2ccccc2)(c2nccn2Cc2ccccc2)CC1` [Compound 72], 0.0631 µM.
Take `O=S(=O)(Nc1ccccc1)N1CCC(c2ccccc2)(c2nccn2Cc2ccccc2)CC1` [Compound 98]: it took 1.58 µM to reach half-maximal inhibition in experiment [3] (IC50).

In general, IC50 refers to the concentration needed to halve the response being measured.
